Data reported in US20110053934A1, “COMPOUNDS AND METHODS OF TREATMENT” (GLAXOSMITHKLINE LLC, priority 2007, published 2011).

Tested on: TT cells, a medullary thyroid cancer cell line with constitutively activated ret
Assay: MTT assay, TT cell proliferation
Type: cell-based
Conditions: Homo sapiens, 168 h, read-out: IC50, TT cell proliferation (MTT)
Protocol: The potency of the compound of the invention was tested for its ability to inhibit cell proliferation and cell viability.

## Cc1ccc(O)cc1Nc1ccnc2ccc(S(C)(=O)=O)cc12 [Example 11, N,N-(2-methyl-5-hydroxyphenyl)-(6-methanesulfonylquinolin-4-yl)amine]
  IC50: < 1000 nM
